# In patent publication US20080152641A1, “Inhibitors of Siderophore Biosynthesis in Fungi” (Autria Wirtschaftsservice, priority 2004, published 2008):
# Tested on: ΔsidA/ΔftrACEA17
# Experiment: Growth of double mutant ΔsidA/ΔftrACEA17 on different iron sources
# Assay type: cell-based, Aspergillus fumigatus
# Conditions: 10 μM as the sole iron source
# Description: 10^4 conidia of the respective strain were point-inoculated on AMM plates containing the respective iron source, and incubated for 48 h at 37° C. Blood agar was AMM containing 5% sheep blood.
# To analyze the potential role of FtrA in iron uptake of A. fumigatus we deleted the encoding gene in ΔsidACEA17 by replacement with the hygromycin resistance (hph) marker (Punt (1987), loc. cit.).
substance,measurement,value
ferritin: host iron compound tested as sole iron source,growth of ΔsidA/ΔftrACEA17 on host iron compound as sole iron source,failed to grow
